Biological target: T1, A disintegrin and metalloproteinase with thrombospondin motifs 4 (Homo sapiens, UniProt O75173)
T1 sequence (O75173 whole entry): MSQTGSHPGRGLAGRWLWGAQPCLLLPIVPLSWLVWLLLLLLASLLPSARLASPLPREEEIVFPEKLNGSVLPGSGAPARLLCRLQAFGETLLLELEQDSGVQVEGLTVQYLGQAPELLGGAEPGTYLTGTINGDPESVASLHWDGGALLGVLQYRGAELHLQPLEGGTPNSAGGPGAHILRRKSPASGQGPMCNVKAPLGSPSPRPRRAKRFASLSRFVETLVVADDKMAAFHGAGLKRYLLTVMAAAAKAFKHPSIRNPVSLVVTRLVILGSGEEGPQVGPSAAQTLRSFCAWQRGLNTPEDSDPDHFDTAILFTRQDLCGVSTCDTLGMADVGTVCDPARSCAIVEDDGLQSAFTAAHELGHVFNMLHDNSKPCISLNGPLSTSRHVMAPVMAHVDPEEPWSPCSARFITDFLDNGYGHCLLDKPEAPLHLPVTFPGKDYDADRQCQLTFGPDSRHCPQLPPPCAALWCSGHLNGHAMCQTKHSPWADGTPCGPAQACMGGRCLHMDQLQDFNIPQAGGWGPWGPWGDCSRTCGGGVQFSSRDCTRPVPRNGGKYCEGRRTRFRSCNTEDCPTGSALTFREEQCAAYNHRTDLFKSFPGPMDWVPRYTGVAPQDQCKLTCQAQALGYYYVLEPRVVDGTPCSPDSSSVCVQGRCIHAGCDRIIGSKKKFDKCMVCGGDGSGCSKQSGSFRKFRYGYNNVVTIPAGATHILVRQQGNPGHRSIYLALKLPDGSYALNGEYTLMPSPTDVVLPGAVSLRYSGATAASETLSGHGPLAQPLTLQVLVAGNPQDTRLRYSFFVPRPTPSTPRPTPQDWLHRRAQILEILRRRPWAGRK
Assay: Inhibition of human ADAMTS4 using VQTVTWPDMELPLPRNITEGEARGSVILTVKPIFEVSPSPLKG peptide as substrate after 3 hrs by Alphascreen assay

IC50: 12 nM
Compound: C[C@@H](Cc1ccc(C(F)(F)F)cc1)C(=O)NC[C@@]1(C2CC2)NC(=O)NC1=O
